Data: patent publication US20250049928A1, “ANESTHETIC PRODRUGS AND DERIVATIVES THEREOF FOR PROLONGED SENSORY SELECTIVE NERVE BLOCKAGE” (The Board of Trustees of The University of Alabama, priority 2023, published 2025)

Details: buffer

Row | Substance | Half-lives
1 | galacturonic acid-capsaicin prodrug [GalA-CAP prodrug] | 111.8 h
2 | glycine-capsaicin prodrug [Gly-CAP prodrug] | 49.5 h
